Screening results (PubChem)
KDM4E inh = blocks human JMJD2E demethylase activity; B2RXH2; JMJD2E catalytic domain, FDH-coupled NADH fluorescence (FDH is formaldehyde dehydrogenase); Potency, µM (series often up to 57.1 µM), inactives show at the highest dose activity change, negative = inhibition, usual class: inhibitors; actives 1.6% (n = 230,000); AID 2147; active = well fitted inhibition curve with a large enough effect, not every such curve was filed as active; inconclusive = small, poorly fitted or top-dose-only effect, or another doubt; inactive = no such curve, though single readings can be large or run the other way;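 also: potency is read from the fitted curve at half-maximal effect; 0% = wells with enzyme and -100% = buffer wells without enzyme; nearly all actives have a fitted effect of over 50% in size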
G9a block = blocks human histone lysine methyltransferase G9a. Q96KQ7. G9a H3K9 monomethylation, AlphaScreen, 2 h. Potency, µM (top dose mostly 102 µM), inactives show at the top dose activity, negative = inhibition, usual class: inhibitors. actives 8.8% (n = 350,000). AID 504332; also: potency is read from the fitted curve at half-maximal effect; % is scaled to controls: 0 for no effect and ±100 for the full control effect; nearly all actives have a fitted effect of over 75% in size
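G9a (20 nM) preincubated 15 min RT with compounds, then 500 nM biotinylated H3K9 peptide and 20 uM SAM added; 2 h RT reaction. Monomethyl-H3K9 product detected by AlphaScreen with anti-H3K9me1 antibody, streptavidin donor and anti-rabbit IgG acceptor beads.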
miR-21 reporter = miR-21 reporter, rising signal; HeLa miR-21 FLuc reporter, luciferase, 48 h; Potency, µM (doses to about 38.3 µM), for inactives: at the highest dose reporter change, positive = more light; 340,000 tested, under 10 active; AID 2288; active = well fitted rising curve with a large enough effect; inconclusive = small, poorly fitted or top-dose-only effect; inactive = no such curve, though single readings can be large or run the other way;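 further: % of control where 0% means no effect; miR-21 action dims this reporter so a rising signal means less miR-21 action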
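Luminescence from a firefly luciferase reporter carrying a miR-21 binding site downstream, stably expressed under a CMV promoter in HeLa cells that make miR-21 endogenously, reports miRNA modulation after 48 h compound exposure up to approximately 40uM final.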
LMNA splice mod = changes lamin A minigene splicing in HeLa cells; Potency, µM (doses to about 46.1 µM), without a hit: at the highest dose ratio change, negative = inhibition, actives largely listed as inhibitors; actives 0.01% (n = 200,000); AID 1487; HeLa LMNA splicing GFP/RFP minigene ratio, 48 h; active = well fitted inhibition curve with a large enough effect in the signal ratio, with a control signal flat, not every such curve was filed as active; inconclusive = small, poorly fitted or top-dose-only effect, or effect the other way, or a change in a side signal; the % refers to the signal ratio; also: potency is read from the fitted curve at half-maximal effect; % is scaled to controls: 0 for no effect and ±100 for the full control effect
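S3 HeLa cells stably expressing lamin A-EGFP splicing minigene plus DsRed2, 600 cells/well, 48 h compound exposure at 37C. Laser-scanning cytometry; analysed as GFP (500-530 nm)/RFP (575-640 nm) total intensity ratio; 0.5% DMSO vehicle.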
Sfp PPTase inh = blocks B. subtilis Sfp PPTase activity; 310,000 tested, 3.5% active; AID 1490; Biochemical Sfp PPTase activity, qHTS; Potency, µM, for the others: max response, negative = inhibition, usual class: inhibitors; active = well fitted inhibition curve with a large enough effect; inconclusive = small, poorly fitted or top-dose-only effect, or another doubt; inactive = no such curve, though single readings can be large or run the other way;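 also: the enzyme is Sfp with the accession as filed and its product quenches rhodamine fluorescence; potency is read from the fitted curve at half-maximal effect; 0% = enzyme reaction without inhibitor and -100% = no enzyme wells; top concentration of the series not given in the record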
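Fluorescence-quenching assay with 15 nM Sfp, 5 uM rhodamine-CoA and 12.5 uM BHQ-2-labelled ybbR peptide in pH 7.6 Hepes/MgCl2 buffer. Enzyme was pre-incubated with compound for 15 min at room temperature. Rate was taken from the 30-min fluorescence change (525/598 nm).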
ALDH1A1 inh = blocks purified human ALDH1A1 activity; P00352; Purified ALDH1A1, NADH fluorescence, propionaldehyde substrate; Potency, µM (highest dose often 75.3 µM), inactives show top-dose activity, negative = inhibition, hits mostly inhibitors; actives 7.3% (n = 220,000); AID 1030; active = well fitted inhibition curve with a large enough effect, not every such curve was filed as active; inconclusive = small, poorly fitted or top-dose-only effect, or another doubt; inactive = no such curve, though single readings can be large or run the other way;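 also: potency is read from the fitted curve at half-maximal effect; plate controls were no enzyme wells and a reference inhibitor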
* = called active by the depositor; ? = inconclusive; . = no result; [ ] = remark or other dose. Rows were chosen to be rich in hits. Some 13% of all compounds tested hit in one or more screens of this group. Unless noted, calls follow the shape of the dose curve; as a rule, active = well fitted curve in the direction sought with a large enough effect; inconclusive = small, poorly fitted or top-dose-only effect, or another doubt; inactive = no such curve, though single readings can be large; an effect the other way counts as inactive or inconclusive.

Structure | KDM4E inh | G9a block | miR-21 reporter | LMNA splice mod | Sfp PPTase inh | ALDH1A1 inh
COc1ccc(CCNC(=O)CCn2c(=O)c3ccccc3n(Cc3c(C)cc(C)cc3C)c2=O)cc1OC | . | ? | 0.1% | . | . | .
CN(C)c1ccc(S(=O)(=O)NCC(=O)OCC(=O)Nc2cc(Cl)cc(Cl)c2)cc1[N+](=O)[O-] | ? | -17.2%[59 µM] | -3.2% | -8.4% | 25.9% | 14.1µM*
COc1cc(NC(=O)COC(=O)CNS(=O)(=O)c2ccc(F)c(F)c2F)cc(OC)c1 | -10.6% | 11.4%[59 µM] | 3.1% | 1.1% | 3.0% | -4.5%
CN(CCOc1ccc(Cl)cc1)C(=O)CNS(=O)(=O)c1ccc(N(C)C)c([N+](=O)[O-])c1 | . | 39.8µM* | . | . | . | .
COc1ccc(NC(=O)CN(C)S(=O)(=O)c2ccc(Cl)cc2)c([N+](=O)[O-])c1 | 4.3% | . | -1.3% | 4.2% | 8.9% | 15.3%
Cc1ccc(N(Cc2cc3ccccc3[nH]c2=O)C(=O)c2cccc(Cl)c2)cc1 | . | ? | 4.9% | . | . | .
COc1cc(/C=C2/NC(=O)N(c3cccc(Cl)c3)C2=O)ccc1O | -13.9% | -2.2% | -0.4% | . | -6.4% | 0.9%
O=C1NN(c2cccc(Br)c2)C(=O)/C1=C\c1ccc(O)cc1 | . | 3.55µM* | -1.8% | . | -6.5% | .
COc1cc(/C=C2/C(=O)NN(c3cccc(Cl)c3)C2=O)cc(OC)c1O | . | 14.1µM* | -0.6% | . | -14.1% | .
CCOc1cc(/C=C2/C(=O)NN(c3cccc(Cl)c3)C2=O)ccc1O | . | 31.6µM* | 4.5% | . | 11.7% | .
Cc1cc(-c2nnc(-c3ccccc3)c(-c3ccccc3)n2)c(C)o1 | -3.0% | 15.8µM* | -5.1% | 18.7% | 14.1µM* | 6.31µM*
Cc1cccc(N/N=C/c2ccccc2O)c1 | -9.5% | 1.58µM* | -62.9% | -8.3% | 4.1% | 25.1µM*
Cc1cccc(N/N=C/c2ccncc2)c1 | . | 50.1µM* | -53.3% | . | 3.4% | .
COC(=O)[C@@]1(Cc2ccc(OC)cc2)[C@H]2c3cc(C(=O)N(C)C)n(CCc4ccccn4)c3C[C@H]2CN1C(=O)c1ccccc1 | 21.2% | . | . | . | 4.0% | -2.0%
Cn1cnnc1SC1CCCCC1NS(=O)(=O)c1ccc(Cl)cc1 (stereo unspecified) | -5.7% | 12.6µM* | -4.4% | -18.5% | 9.7% | 12.6µM*
CSc1ccc(OC2CCCCC2NS(=O)(=O)c2ccc(Cl)cc2)cc1 (stereo unspecified) | -9.8% | -8.6%[59 µM] | 8.5% | ? | 14.6% | 0.447µM*
CC(=O)Nc1ccc(NC2CCCCC2NS(=O)(=O)c2ccc(Cl)cc2)cc1 (stereo unspecified) | . | 39.8µM* | 16.1% | . | 14.6% | .
O=S(=O)(NC1CCCCC1Oc1ccccc1)c1ccc(Cl)cc1 (stereo unspecified) | 10.6% | 36.1%[59 µM] | -6.9% | ? | 4.7% | ?
Nn1cnnc1SC1CCCCC1NS(=O)(=O)c1ccccc1 (stereo unspecified) | 6.5% | ? | 3.1% | -0.2% | -27.6% | 10µM*
CC1/C=C/C=C/C=C/C=C/C=C/C=C/C=C/C(OC2OC(C)C(O)C(N)C2O)CC2O[C@@](O)(CC(O)CC(O)C(O)CCC(O)CC(O)CC(=O)OC(C)[C@H](C)C1O)CC(O)C2C(=O)O (stereo partly specified) | ? | ? | . | . | -64.8% | ?

Next structures.
Sequence of screens – KDM4E inh	G9a block	miR-21 reporter	LMNA splice mod	Sfp PPTase inh	ALDH1A1 inh
Cn1cnnc1SC1CCCCC1NS(=O)(=O)c1ccccc1 (stereo unspecified)
    -3.1%	3.2%[59 µM]	-1.0%	-5.9%	11.9%	7.94µM*
COc1cc(-c2cc(=O)c3c(O)c(OC)c(OC)c(OC)c3o2)cc(OC)c1OC
    -23.2%	?	-11.9%	?	6.8%	11.2µM*
COc1ccc(-c2cc(=O)c3c(OC)c(OC)c(OC)c(OC)c3o2)cc1
    -6.4%	.	.	-10.1%	-6.5%	1.41µM*
COc1ccc(/C=C/c2cc(OC)cc(=O)o2)cc1
    .	29.5%[59 µM]	.	.	21.0%	?
COc1ccc(/C=C/c2cc(=O)c3cc(Cl)ccc3o2)cc1
    ?	?	-10.9%	1.6%	50.1µM*	12.9%
COc1ccc(-c2cc(=O)c3cc(OC)ccc3o2)cc1
    0.708µM*	2.2%	-51.3%	?	?	?
CCS(=O)(=O)c1ncc(CO)n1CCc1ccccc1
    .	20.1%	0.9%	.	19.4%	.
Cn1c(=O)c2c(nc(NCc3ccccc3)n2Cc2ccc(Cl)c(Cl)c2)n(C)c1=O
    .	-40.7%[59 µM]	?	.	.	.
Nc1cc(=O)[nH]c(SCC(=O)Nc2ncc(C(F)(F)F)cc2Cl)n1
    -12.2%	8.0%	3.4%	.	-19.2%	13.8%
Cc1nc(-c2ccccc2)sc1-c1ccc(SCC(=O)Nc2ccccc2)nn1
    .	3.0%[59 µM]	-18.6%	.	.	.

Rewritten field by field: 2 of the compounds above.
COc1cc(-c2cc(=O)c3c(O)c(OC)c(OC)c(OC)c3o2)cc(OC)c1OC
  KDM4E inh: -23.2%; G9a block: ?; miR-21 reporter: -11.9%; LMNA splice mod: ?; Sfp PPTase inh: 6.8%; ALDH1A1 inh: 11.2µM*
Cn1c(=O)c2c(nc(NCc3ccccc3)n2Cc2ccc(Cl)c(Cl)c2)n(C)c1=O
  KDM4E inh: .; G9a block: -40.7%[59 µM]; miR-21 reporter: ?; LMNA splice mod: .; Sfp PPTase inh: .; ALDH1A1 inh: .

Further entries
Sequence of screens – KDM4E inh	G9a block	miR-21 reporter	LMNA splice mod	Sfp PPTase inh	ALDH1A1 inh
COc1ccc(CNC(=O)c2cnc(N(C)C)nc2)cc1
    .	31.2%[59 µM]	-6.7%	-11.5%[46 µM]	.	.
COc1ccc(CNC(=O)c2cccc(N(C)C)c2)cc1
    ?	7.08µM*	-10.7%	-8.4%	?	?
COc1ccccc1CNC(=O)c1cccc(N(C)C)c1
    -6.3%	8.91µM*	-27.0%	-6.9%	-3.5%	-13.5%
CCc1cccc(C)c1NC(=O)c1cccc(N(C)C)c1
    ?	?	-0.4%	-2.5%	56.2µM*	?
CCc1cccc(C)c1NC(=O)c1cccc(C(=O)Nc2c(C)cccc2CC)c1
    .	-1.3%[59 µM]	0.7%	.	.	.
COc1ccccc1CNC(=O)c1ccc(S(=O)(=O)N(C)c2ccccc2)cc1
    .	-32.6%	.	.	.	.
CCc1nc2ccccc2n2c(-c3ccccc3)c3c(=O)n(C)c(=O)n(C)c3c12
    .	2.9%[59 µM]	-3.6%	.	.	.
CCOc1ccc(C2C(C(=O)Nc3ccccc3)=C(C)N=c3s/c(=C/c4cccc(OCC(=O)O)c4)c(=O)n32)cc1 (stereo unspecified)
    0.9%	50.1µM*	-2.7%	.	79.4µM*	0.6%
CCOC(=O)C1=C(C)N=c2s/c(=C\c3ccc(OCC(=O)O)cc3)c(=O)n2C1c1ccccc1OC (stereo unspecified)
    .	-35.5%[2.33 µM]	-0.3%	.	-12.5%	.
CC1=C(C(=O)Nc2ccccc2)C(c2ccc(Cl)cc2)n2c(s/c(=C/c3cccc(OCC(=O)O)c3)c2=O)=N1 (stereo unspecified)
    -1.9%	?	-1.9%	.	50.1µM*	-2.8%
CCOC(=O)C1=C(C)N=c2s/c(=C\c3ccc(OCC(=O)O)cc3)c(=O)n2C1c1ccc(Cl)cc1 (stereo unspecified)
    .	.	3.2%	.	-3.0%	.
O=C(CC1=NCCNC(c2ccccc2)C1)c1ccccc1O (stereo unspecified)
    -11.9%	-7.3%[59 µM]	-50.7%	3.1%	11.1%	17.8µM*
CCOc1ccc(OCC(=O)NCCS(=O)(=O)N2CCN(c3ccccc3F)CC2)cc1
    .	12.2%[59 µM]	8.3%	5.9%[46 µM]	.	.
